Chains of the proteins cited; added tags and fusions are not shown. Residues count along the entry.
UniProt O42275, 24-633 limits assumed: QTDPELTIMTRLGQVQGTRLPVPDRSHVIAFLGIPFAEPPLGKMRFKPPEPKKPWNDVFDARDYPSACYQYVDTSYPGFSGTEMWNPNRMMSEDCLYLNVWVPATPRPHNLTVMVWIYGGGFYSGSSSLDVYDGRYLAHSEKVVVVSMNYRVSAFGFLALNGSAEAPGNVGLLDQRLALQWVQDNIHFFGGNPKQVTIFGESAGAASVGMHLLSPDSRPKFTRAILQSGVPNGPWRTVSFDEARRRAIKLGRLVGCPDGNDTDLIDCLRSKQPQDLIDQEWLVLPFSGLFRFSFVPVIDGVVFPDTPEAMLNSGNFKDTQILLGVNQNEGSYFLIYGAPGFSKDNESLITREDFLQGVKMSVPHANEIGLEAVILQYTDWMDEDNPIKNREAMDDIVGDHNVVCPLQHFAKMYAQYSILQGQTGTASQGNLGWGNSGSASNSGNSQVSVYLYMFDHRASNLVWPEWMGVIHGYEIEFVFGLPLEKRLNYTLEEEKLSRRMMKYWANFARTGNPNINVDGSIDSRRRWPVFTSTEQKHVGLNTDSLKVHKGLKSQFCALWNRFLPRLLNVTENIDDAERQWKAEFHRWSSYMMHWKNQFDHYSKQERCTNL

In ChEMBL document CHEMBL4325836, “Novel tacrine-pyridinium hybrid reactivators of organophosphorus-inhibited acetylcholinesterase: Synthesis, molecular docking, and in vitro reactivation study” (2018):

Molecular target: T1, Acetylcholinesterase (Electrophorus electricus, UniProt O42275)
Test: Inhibition of electric eel AChE assessed as remaining enzyme activity at 1 uM using acetylthiocholine iodide as substrate preincubated for 30 mins followed by substrate addition and measured every 3 mins for 15 mins relative to control
Details: 0.25 h; call rule not given here

Row | Structure (SMILES) | Activity [%]
1 | Cl.NC(=O)c1cc[n+](COCN2C=CC=CC2=CN=O)cc1.[Cl-] | 95
2 | O/N=C/c1cc[n+](CCNc2c3c(nc4ccccc24)CCCC3)cc1.[Br-] | 95
3 | O/N=C/c1cc[n+](CCCCNc2c3c(nc4ccccc24)CCCC3)cc1.[Br-] | 90
4 | C[n+]1ccccc1/C=N/O.[Cl-] | 95
5 | O/N=C/c1cc[n+](CCCNc2c3c(nc4ccccc24)CCCC3)cc1.[Br-] | 92

Molecular target: T1, Acetylcholinesterase
Test: Inhibition of electric eel AChE assessed as remaining enzyme activity at 100 to 1000 uM using acetylthiocholine iodide as substrate preincubated for 30 mins followed by substrate addition and measured every 3 mins for 15 mins
Details: 0.25 h

Row | Structure (SMILES) | inhibition (INH)
6 | O/N=C/c1cc[n+](CCCCCNc2c3c(nc4ccccc24)CCCC3)cc1.[Br-] | Active
7 | O/N=C/c1cc[n+](CCNc2c3c(nc4ccccc24)CCCC3)cc1.[Br-] | Active
8 | O/N=C/c1cc[n+](CCCCCCNc2c3c(nc4ccccc24)CCCC3)cc1.[Br-] | Active
9 | O/N=C/c1cc[n+](CCCCNc2c3c(nc4ccccc24)CCCC3)cc1.[Br-] | Active
10 | O/N=C/c1cc[n+](CCCCCCCNc2c3c(nc4ccccc24)CCCC3)cc1.[Br-] | Active
11 | O/N=C/c1cc[n+](CCCNc2c3c(nc4ccccc24)CCCC3)cc1.[Br-] | Active
